Yeast mating assay 2: variants of the scFv Ab-95

Target peptide (SARS-CoV-2 spike, HR2 region): PDVDLGDISGINAS

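The starting antibody came from a phage panning campaign against this peptide. AAYL52 was designed without a model: most single CDR substitutions and a random sample of double and triple ones. The assay is AlphaSeq: two haploid yeast populations carry antibody and antigen on their surface. The frequency of each diploid, read from paired DNA barcodes, reflects how well the two displayed proteins bind. Each replicate has its own calibration line, from reference interactions of the BCL2 family. The assay was run in three technical replicates.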

Each scFv is VH, a 15-residue (Gly4Ser)3 linker, VL, as in the parent Ab-95, and differs from it in the CDRs of the light chain only.
VH: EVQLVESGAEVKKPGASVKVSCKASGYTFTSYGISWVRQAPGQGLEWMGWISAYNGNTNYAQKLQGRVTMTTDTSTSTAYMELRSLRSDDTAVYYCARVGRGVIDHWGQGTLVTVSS
VL: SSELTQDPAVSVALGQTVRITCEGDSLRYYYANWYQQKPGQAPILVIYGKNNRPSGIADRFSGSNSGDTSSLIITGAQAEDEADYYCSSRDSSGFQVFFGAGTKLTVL

Each variant is given by its three light chain CDRs, as the data file delimits them; those of the parent are EGDSLRYYYAN, GKNNRPS, SSRDSSGFQVF.
The read-out is the apparent dissociation constant on a log10 scale (nM): the lower, the stronger.
The mean shown is taken over the replicates in which the pair was detected.
An entry "ND" has no value in the source: the pair was not observed among the diploids in that replicate. This suggests poor binding but is not conclusive.
Background: pairings of library AAYL52 with three empty control strains gave a value in 28% of cases (median 3.91, 5th percentile 2.90). Values in that range, when seen in few replicates, are hard to tell from nonspecific mating. The control count says in how many pairings with the empty strains this scFv gave a signal, with their mean in brackets.

CDR-L1,CDR-L2,CDR-L3,"replicates, log10 nM",mean log10 Kd (nM),control signals
EDDSLRYYYAN,GKNGRPS,SSRDSSGFQIF,2.83 / 4.61 / 3.99,3.81,2/9 (2.75)
EGDSLRYYYAC,GKNNRPS,SSRDSKGFQFF,ND / ND / ND,ND,0/9
EGDSLRYYYAN,GKNNRPP,SSQDSSGFQPF,ND / ND / ND,ND,1/9 (4.39)
EGDSWRYYYAN,GKNNRPS,QSRDSSGFQVF,2.10 / 1.69 / 1.66,1.82,1/9 (2.76)
EGDILRYYYAK,GKNNRPS,SSRDSSGFQVF,2.48 / 1.99 / 1.50,1.99,1/9 (3.88)
ENDSLRYYYAN,SKNNRPS,VSRDSSGFQVF,ND / ND / 4.06,4.06,6/9 (4.49)
MGDSLRYYYHN,GKNNRPS,SSRDSSGFQVF,2.82 / 3.89 / 3.13,3.28,3/9 (4.00)
EGDSLAYYYAN,GKWNRPS,SSRDSPGFQVF,5.34 / ND / ND,5.34,2/9 (3.32)
EIDSLPYYYAN,GKNNAPS,SSRDSSGFQVF,4.37 / ND / ND,4.37,3/9 (4.22)
EGDSLRYYYEN,GKNNRPQ,SSEDSSGFQVF,3.94 / ND / ND,3.94,2/9 (3.45)
EGDSLRYYYAN,GINNGSS,SSRDSSGFQVF,ND / 4.10 / ND,4.10,4/9 (4.45)
EGDALRYYYAN,GHNNRSS,SSRDSSGFQVF,2.54 / 2.63 / 1.91,2.36,3/9 (3.51)
EGDSLRYYYSN,GKNQRPS,SSRDSMGFQVF,2.85 / 2.66 / 2.82,2.78,2/9 (4.52)
EGQKLRYYYAN,GKNNRPS,SSRDSSGFQVT,ND / 5.17 / 3.71,4.44,3/9 (3.84)
EGDSLRYYYAF,GKNNRPS,SPRDSSGKQVF,ND / ND / ND,ND,1/9 (3.57)
EGDSLRYYYIE,GKNNRPS,SSRDKSGFQVF,4.92 / ND / ND,4.92,2/9 (3.93)
EGDSLRYYYAN,VKNVRQS,SSRDSSGFQVF,4.27 / ND / ND,4.27,1/9 (3.70)
EGFSRRYYYAN,GKNNRPS,SSRDSCGFQVF,2.46 / 2.70 / 2.56,2.58,5/9 (4.12)
EGDQLRYYYAN,QKNNRPS,SSRDSSGFKVF,3.68 / ND / ND,3.68,2/9 (3.68)
EGDSLRYYYAN,GKNNRPS,SSRDHAGKQVF,2.98 / ND / 3.10,3.04,2/9 (4.41)
EGDSLRYGYGN,GKNNRPS,CSRDSSGFQVF,1.92 / 1.48 / 1.45,1.62,0/9
EQDSLRYYCAN,GKNNRPS,SSRDSSGPQVF,ND / 5.28 / 3.80,4.54,5/9 (3.87)
EGDSLRSYYAN,GKNNWPS,SSGDSSGFQVF,3.50 / ND / ND,3.50,3/9 (4.10)
EGDSLRYYYAN,GKNNNPS,CSWDSSGFQVF,3.54 / 3.69 / 3.83,3.69,2/9 (3.37)
EGDSIRYYYYN,GKNSRPS,SSRDSSGFQVF,3.43 / 5.10 / ND,4.27,5/9 (3.95)
EGDSLRYYYAN,GKNNRPS,SSRDSSEFQVF,2.86 / 2.31 / 1.95,2.37,1/9 (3.09)
EGDSLRYYYAN,GKNNRPS,KSRDFSGFQVM,ND / ND / ND,ND,1/9 (3.99)
EGDYLRKYYAN,GKNNRPS,SSRDSSGFQPF,3.15 / 4.00 / ND,3.58,2/9 (3.22)
EGDSLRYYYAG,GKNNRPC,SSRDSSGFQVF,5.41 / ND / ND,5.41,1/9 (3.84)
EGDSLRYYYAN,GKNNRPD,SRRDSSGFTVF,ND / ND / ND,ND,4/9 (3.20)
EGDSIRYYYAN,GKVNRPS,SRRDSSGFQVF,4.05 / ND / 4.25,4.15,3/9 (3.52)
EGDSLRYYYAN,GKNNRPS,SSRDHSGFQVL,3.53 / 3.03 / 4.10,3.55,2/9 (3.95)
EGCSLRYYYAN,GKVNRPW,SSRDSSGFQVF,ND / ND / ND,ND,4/9 (3.92)
EGDSLRYYYAN,NKNNRPS,SSRDSSGFYSF,3.38 / 2.51 / ND,2.95,1/9 (3.95)
EGDALRYYYAN,GKNNRPS,SSRDSNGFQVF,2.33 / 2.19 / 2.95,2.49,2/9 (3.85)
EGDSLWYYYAN,GKNNLPS,SSRDSSGFQCF,4.52 / 3.91 / 3.63,4.02,5/9 (4.00)
EGDSLRWQYAN,GKNNRPS,SSRDSQGFQVF,1.27 / 1.19 / 0.66,1.04,4/9 (4.54)
EGDSLRYLYAN,GKHNRPY,SSRDSSGFQVF,4.03 / 3.27 / 3.99,3.76,2/9 (4.71)
EGDSLRYYYAN,GKSNAPS,SSRDRSGFQVF,3.05 / 2.67 / 2.53,2.75,4/9 (3.85)
EGDSLWIYYAN,GKNNPPS,SSRDSSGFQVF,4.44 / ND / ND,4.44,6/9 (4.14)
EGDSLRYWYIN,GINNRPS,SSRDSSGFQVF,2.73 / 3.62 / 4.06,3.47,5/9 (3.95)
EGDSLRYYYAN,GINPRPL,SSRDSSGFQVF,3.48 / ND / 4.44,3.96,3/9 (3.76)

For reference, 3 entries of the list once more:

CDR-L1,CDR-L2,CDR-L3,"replicates, log10 nM",mean log10 Kd (nM),control signals
EGDSLRYWYIN,GINNRPS,SSRDSSGFQVF,2.73 / 3.62 / 4.06,3.47,5/9 (3.95)
EGDSLRYYYAN,GKNNRPS,KSRDFSGFQVM,ND / ND / ND,ND,1/9 (3.99)
EGDSLRYYYAF,GKNNRPS,SPRDSSGKQVF,ND / ND / ND,ND,1/9 (3.57)

Values reported by Engelhart et al. 2022, doi:10.1038/s41597-022-01779-4 (FLAb copy).